Sequences of proteins named here, by UniProt entry; tags and fusion partners are left off.
UniProt P27695, whole entry: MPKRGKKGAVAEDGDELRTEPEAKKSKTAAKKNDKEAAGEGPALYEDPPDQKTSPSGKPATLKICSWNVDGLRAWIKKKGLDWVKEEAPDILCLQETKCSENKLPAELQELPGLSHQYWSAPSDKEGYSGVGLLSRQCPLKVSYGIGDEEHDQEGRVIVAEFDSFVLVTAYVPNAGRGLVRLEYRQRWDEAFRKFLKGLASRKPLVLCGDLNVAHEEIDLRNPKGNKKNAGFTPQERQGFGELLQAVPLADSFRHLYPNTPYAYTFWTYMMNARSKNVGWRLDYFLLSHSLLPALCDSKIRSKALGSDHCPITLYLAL

According to paper PMC3479139, “Diverse Small Molecule Inhibitors of Human Apurinic/Apyrimidinic Endonuclease APE1 Identified from a Screen of a Large Public Collection” (PLoS ONE, 2012):

Tests used:
[1] = target: double-stranded 17-mer DNA fragment; assay: ThO (Thiazole Orange) DNA displacement assay; format: binding; details: for IC50: read-out: ThO-DNA binding IC50;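 on all read-outs here: miniaturized displacement of the intercalating dye from unlabeled duplex DNA, used to flag nonspecific DNA binders, chiefly intercalators, groove binders may be missed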
E. coli Endo IV = E. coli Endo IV (Escherichia coli, UniProt P0A6C1); assay: E. coli Endo IV profiling counterscreen; format: biochemical; details: read-out: EndoIV IC50;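 further: selectivity counterscreen of candidate APE1 inhibitors against the bacterial endonuclease Endo IV, run in the same assay format as the primary APE1 high-throughput screen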
APE1 [2] = target: T1, APE1 (Homo sapiens, UniProt P27695); assay: Fluorogenic kinetic qHTS APE1 incision assay (primary screen and retest of cherrypicked samples); format: biochemical;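 further: purified APE1 cleaving a fluorophore/dark-quencher labelled 17-mer duplex DNA bearing a tetrahydrofuran AP site, fluorescence rise followed kinetically over the first 2 min, inhibition normalized to controls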
APE1 [3] = target: T1, APE1; assay: Fluorescence polarization (FP) displacement assay of APE1 binding to AP-DNA probe; details: read-out: FP IC50;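 further: TAMRA 5′-labeled duplex DNA with THF abasic site (5 nM) and APE1 (20 nM), Mg2+-free buffer, 15 min at room temperature, inhibition seen as lowered polarization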

SMILES	IC50 [1] [µM]	IC50 (E. coli Endo IV) [µM]	ThO assay signal behaviour (autofluorescence interference) [1]	IC50 (APE1 [2]; read-out: APE1 Retest IC50, retest of cherrypicked sample) [µM]	IC50 (APE1 [2]; read-out: APE1 qHTS IC50, initial quantitative high-throughput screen) [µM]	IC50 (APE1 [3]) [µM]
CC(=O)[C@]1(O)Cc2c(O)c3c(c(O)c2[C@@H](O[C@H]2C[C@H](N)[C@H](O)[C@H](C)O2)C1)C(=O)c1c(O)cccc1C3=O	> 57	12.6				
COc1cccc2c1C(=O)c1c(O)c3c(c(O)c1C2=O)C[C@@](O)(C(C)=O)C[C@H]3O[C@H]1C[C@H](N)[C@H](O)[C@H](C)O1			strong dose-dependent fluorescence signal increase			
CC1=C(C#N)c2nc(N)c(C#N)c(C)c2/C1=C\c1ccc(-c2ccccc2C(=O)O)o1	11.2	> 57		14.1	25.1	12.6
C[n+]1c2cc(N)ccc2cc2ccc(N)cc21	> 57	10				
O=C(O)c1cccc(N2C(=O)C3CC=C(Cl)CC3C2=O)c1 (stereo not drawn)	> 57	> 57				
